PKA-R2B activ: activators of PKA-R2B holoenzyme, primary screen, biochemical, fluorescence polarization, Cy5-IP20, human; cAMP-dependent protein kinase catalytic subunit beta (Homo sapiens) + cAMP-dependent …; PKA-R2B holoenzyme dissociation; R2B truncated from residue 108, S112A mutant; 0% DMSO only, 100% 113 µM cGMP; activation, % at 11.4 µM; 0.079% of 340,000 active; AID 504700, 2011;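 active means activation above a cutoff set at the mean over all compounds plus 3 SD, cut at about 18% in these data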;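 further: higher means more holoenzyme dissociation and a rise in polarization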
PKA-R1A act: activators of PKA-R1A holoenzyme, primary screen, biochemical, fluorescence polarization, Cy5-IP20, bovine R1A, mouse PKAc; PKA-R1A dissociation; scaled: DMSO 0%, 113 µM cGMP 100%; cAMP-dependent protein kinase type I-alpha regulatory subunit (Bos taurus) + …; activation, % at 11.4 µM; 0.083% of 340,000 active;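 active means percent activation above the mean of all tested compounds plus 3 SD, cut at about 19% in these data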;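 further: higher means more PKAc released from R1A so a rise in polarization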
ABCB6 inh MLPCN: ABCB6 transporter inhibitors, primary screen, K562-ABCB6 cells, flow cytometry, MLPCN library | fluorescence ratio to DMSO, % at 10 µM | AID 602162, 2011 | ATP-binding cassette sub-family B member 6 (Homo sapiens), Q9NP58 | 0.19% of 360,000 active | K562-ABCB6 porphyrin accumulation, 1 h; hits give low values;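 active means fluorescence ratio to DMSO below 75%, the collection mean minus 3 SD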;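 further: signal is porphyrin accumulated inside mitochondria; 100% equals median channel fluorescence of DMSO control wells; lower ratio means ABCB6 inhibition with less porphyrin fluorescence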
Exocytosis inh: LAMP-1 surface exposure blockers, TALL-104 cells – cell-based, flow cytometry, MLPCN library, primary screen. TALL-104 LAMP-1 surface exposure; cells stimulated with thapsigargin and PMA. inhibition, % at 10 µM. 0.66% of 360,000 active. AID 651702, 2012;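 active means inhibition above about 55%, limit read from the data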
p-CIP stab down: p/CIP-EGFP fusion destabilizers, primary screen, fluorescence, F442A cells; Q05BA5; decrease of EGFP signal, % at 10 µM; AID 1984, 2009; 0.01% of 290,000 active; 16 h;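 active means EGFP signal decrease of at least 30% at 10 µM or well 3 SD below plate mean, unless failing retest; inactive means the rest, including hits failing retest or dose response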
Yeast UUG start: modulators of yeast start codon fidelity, primary screen, whole organism, S. cerevisiae, single point, plate reader | S. cerevisiae UUG-firefly luciferase reporter, luminescence/redox ratio | activity score, % at 18.7 µM | hit rate 0.13% among 350,000;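 active = replicate mean at a twofold rise or more, about +100% in these data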;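 note: firefly luciferase made from a UUG start codon reports start codon fidelity; reporter light over untreated wells divided by growth signal over untreated wells; some hits fall short of that in this replicate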
Exocytosis CP01: inhibitors of lytic granule exocytosis, confirmation, TALL-104 cells, flow cytometry, Cherry Pick01. shares compounds with Exocytosis inh. LAMP-1 externalization; stimulated with PMA plus thapsigargin. inhibition, % at 10 µM. 11% of 1,500 active. AID 651954, 2012; in the data active means inhibition above about 60%;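 further: 0% = stimulated vehicle wells and 100% = unstimulated wells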
Starred values were filed as active, the others as inactive; nt = no result. Shown are actives, neighbours in structure and some others; about 0.94% of the full set was active somewhere.

1	C[C@H]1CN([C@@H](C)CO)C(=O)Cc2cc(NC(=O)NC3CCCCC3)ccc2O[C@H]1CN(C)S(C)(=O)=O
2	O=C(Nc1ccc(S(=O)(=O)Nc2ccccc2)cc1)c1ccc(CN2CCOCC2)cc1
3	CN(C)C(=O)C[C@@H]1CC[C@@H]2[C@H](COc3ccc(NC(=O)c4ccc(F)c(F)c4)cc3C(=O)N2C)O1
4	Cc1ccc(S(=O)(=O)Nc2ccc3c(c2)C(=O)N([C@@H](C)CO)C[C@@H](C)[C@H](CN(C)S(=O)(=O)c2ccc(F)cc2)OCCCC[C@@H](C)O3)cc1
5	Fc1cccc(NC(=S)N2CCc3ccccc32)c1
6	COc1cc(NC(=O)c2cc(-c3ccccc3Cl)on2)cc(OC)c1OC

entry no.	1	2	3	4	5	6
PKA-R2B activ	nt	-4	nt	nt	7	-2
ABCB6 inh MLPCN	nt	98	nt	nt	97	94
Exocytosis inh	nt	76*	nt	nt	64*	69*
p-CIP stab down	nt	-5	nt	nt	-12	2
Yeast UUG start	-1	nt	18	13	-17	-25
PKA-R1A act	nt	-1	nt	nt	-3	9
Exocytosis CP01	nt	9	nt	nt	-4	-11

7	COc1ccc(NC(=O)c2cc(-c3ccccc3Cl)on2)cc1
8	CCC(=O)N(C)C[C@H]1Oc2cc(C#CC3(O)CCCC3)ccc2S(=O)(=O)N([C@H](C)CO)C[C@H]1C
9	CN(Cc1ccccc1)c1ncnc2sccc12
10	COc1ccc(-c2cc(CNc3nc(NCc4ccccc4OC)nc4ccsc34)on2)cc1
11	C[C@@H]1CCCCO[C@@H](CN(C)S(=O)(=O)c2ccccc2)[C@H](C)CN([C@@H](C)CO)C(=O)c2cc(NC(=O)C3CCCCC3)ccc2O1
12	Cc1ccccc1CC1CCN(CCCNC(=O)Nc2ccccc2)CC1

entry no.	7	8	9	10	11	12
PKA-R2B activ	-9	nt	3	nt	nt	3
ABCB6 inh MLPCN	98	nt	94	98	nt	105
Exocytosis inh	-3	nt	57*	66*	nt	63*
p-CIP stab down	-4	nt	-14	nt	nt	14
Yeast UUG start	-14	8	-11	-12	-2	-4
PKA-R1A act	-2	nt	1	nt	nt	-4
Exocytosis CP01	nt	nt	-3	52	nt	-13

13	Cc1ccc(C)c(CN2CCC(CNC(=O)Nc3ccc(Cl)cc3)CC2)c1
14	COc1cccc(NC(=O)N(C)C[C@@H]2Oc3ncc(/C=C/c4ccccc4)cc3C(=O)N([C@H](C)CO)C[C@@H]2C)c1
15	O=C(C[C@@H]1CC[C@H](NC(=O)CN2CCOCC2)[C@H](CO)O1)NC1CCCCC1
16	C[C@@H]1CN([C@@H](C)CO)C(=O)Cc2cc(NC(=O)Cc3ccccc3)ccc2O[C@@H]1CN(C)S(=O)(=O)c1cn(C)cn1
17	O=C(O)c1ccccc1-c1ccc(/C=C2\SC(=O)N(c3ccccc3)C2=O)o1
18	O=C1S/C(=C\c2ccc(N3CCOCC3)o2)C(=O)N1c1ccccc1

entry no.	13	14	15	16	17	18
PKA-R2B activ	-6	nt	nt	nt	12	6
ABCB6 inh MLPCN	100	nt	nt	nt	99	109
Exocytosis inh	66*	nt	nt	nt	-4	68*
p-CIP stab down	3	nt	nt	nt	-2	-69
Yeast UUG start	-10	-4	-2	-9	58	nt
PKA-R1A act	-4	nt	nt	nt	-6	10
Exocytosis CP01	-2	nt	nt	nt	nt	18

Shown in markdown: entries from further up.
| entry | SMILES | PKA-R2B activ | ABCB6 inh MLPCN | Exocytosis inh | p-CIP stab down | Yeast UUG start | PKA-R1A act | Exocytosis CP01 |
| --- | --- | --- | --- | --- | --- | --- | --- | --- |
| 4 | Cc1ccc(S(=O)(=O)Nc2ccc3c(c2)C(=O)N([C@@H](C)CO)C[C@@H](C)[C@H](CN(C)S(=O)(=O)c2ccc(F)cc2)OCCCC[C@@H](C)O3)cc1 | nt | nt | nt | nt | 13 | nt | nt |
| 5 | Fc1cccc(NC(=S)N2CCc3ccccc32)c1 | 7 | 97 | 64* | -12 | -17 | -3 | -4 |

(continued)
19	C[C@H]1CN([C@@H](C)CO)C(=O)c2cc(C3=CCCC3)cnc2O[C@@H]1CN(C)Cc1ccc(F)cc1
20	CCOc1cc(CNCCc2ccc(S(N)(=O)=O)cc2)ccc1OCc1ccc(Cl)cc1
21	C[C@@H]1CN([C@H](C)CO)C(=O)c2cccc(NC(=O)c3ccncc3)c2O[C@@H]1CN(C)S(=O)(=O)c1cccs1
22	CO[C@@H]1CN(C)C(=O)c2cc(NS(=O)(=O)c3ccccc3Cl)ccc2OC[C@H](C)NC[C@@H]1C
23	O=C(Nc1ccc(N2CCN(c3ncccc3C(F)(F)F)CC2)nc1)c1cccs1
24	O=C(Nc1ccc(N2CCN(c3ccc(C(F)(F)F)cn3)CC2)nc1)c1cccs1

entry no.	19	20	21	22	23	24
PKA-R2B activ	nt	-9	nt	nt	-2	10
ABCB6 inh MLPCN	nt	89	nt	nt	91	103
Exocytosis inh	nt	103*	nt	nt	75*	-3
p-CIP stab down	nt	-16	nt	nt	-26	-14
Yeast UUG start	6	-5	0	-4	nt	nt
PKA-R1A act	nt	-1	nt	nt	-2	-3
Exocytosis CP01	nt	94*	nt	nt	18	nt

25	Cn1c(=O)c2c(nc(N3CCN(c4ccccc4)CC3)n2CCCc2ccccc2)n(C)c1=O
26	CC(C)NC(=O)N(C)C[C@@H]1Oc2c(NC(=O)C3CCCCC3)cccc2C(=O)N([C@H](C)CO)C[C@H]1C
27	COc1ccccc1NC(=O)N(C)C[C@@H]1OCc2ccccc2-c2c(n(C)c3ccccc23)C(=O)N([C@@H](C)CO)C[C@H]1C
28	CC(C)(C)NC(=O)CN1C(=O)NC(c2ccccc2)(c2ccccc2)C1=O
29	CCC1(C)CC(CCNS(=O)(=O)c2ccc(C)cc2)(c2ccc(C)cc2)CCO1 (stereo not drawn)
30	CCCCSCCCNC(=O)c1ccc(CS(=O)(=O)c2ccccc2OC)o1

entry no.	25	26	27	28	29	30
PKA-R2B activ	5	nt	nt	-1	-2	5
ABCB6 inh MLPCN	106	nt	nt	98	99	97
Exocytosis inh	74*	nt	nt	85*	57*	94*
p-CIP stab down	-4	nt	nt	-4	-5	-2
Yeast UUG start	-2	-1	6	-10	-9	-1
PKA-R1A act	-3	nt	nt	11	-6	-7
Exocytosis CP01	-3	nt	nt	-4	-12	-13

Of the compounds above, these have a CF3 group.
23	O=C(Nc1ccc(N2CCN(c3ncccc3C(F)(F)F)CC2)nc1)c1cccs1
24	O=C(Nc1ccc(N2CCN(c3ccc(C(F)(F)F)cn3)CC2)nc1)c1cccs1

entry no.	23	24
PKA-R2B activ	-2	10
ABCB6 inh MLPCN	91	103
Exocytosis inh	75*	-3
p-CIP stab down	-26	-14
Yeast UUG start	nt	nt
PKA-R1A act	-2	-3
Exocytosis CP01	18	nt

(more compounds)
31	COc1ccc(CCNC(=O)C23CN(Cc4ccccc4)CC2C(c2ccc([N+](=O)[O-])cc2)=NO3)cc1 (stereo not drawn)
32	C[C@@H]1CCCCO[C@@H](CN(C)S(=O)(=O)c2cn(C)cn2)[C@H](C)CN([C@H](C)CO)C(=O)c2cc(NC(=O)c3ccccc3)ccc2O1
33	O=C(CCCc1c[nH]c2ccccc12)NCCc1c[nH]c2ccccc12
34	Cn1c(Cl)c(C(=O)Nc2ccc(Cl)cc2)c2ccccc21
35	Cc1ccc(S(=O)(=O)CCC(=O)c2ccc(O)cc2O)cc1
36	COc1ccc(CC(=O)NCC2CCCN(Cc3ccc(OC(F)(F)F)cc3)C2)cc1 (stereo not drawn)
37	CO[C@@H]1CN(C)C(=O)c2cc(NS(C)(=O)=O)ccc2OC[C@@H](C)N(Cc2ccccc2)C[C@@H]1C
38	Nc1c(C(=O)NCc2ccc(F)cc2)c2nc3ccccc3nc2n1CCCN1CCOCC1

entry no.	31	32	33	34	35	36	37	38
PKA-R2B activ	-2	nt	2	4	12	9	nt	-4
ABCB6 inh MLPCN	103	nt	93	94	106	97	nt	104
Exocytosis inh	60*	nt	80*	69*	104*	66*	nt	62*
p-CIP stab down	7	nt	-4	4	-9	5	nt	4
Yeast UUG start	-4	-3	-11	1	1	-9	2	-6
PKA-R1A act	5	nt	-11	-4	1	-2	nt	2
Exocytosis CP01	-12	nt	-14	-1	44	-12	nt	90*

Screens: PubChem, several laboratories
